Results as given in ChEMBL document CHEMBL1131601, “4-Amino-2-[4-[1-(benzyloxycarbonyl)-2(S)- [[(1,1-dimethylethyl)amino]carbonyl]-piperazinyl]-6, 7-dimethoxyquinazoline (L-765,314): a potent and selective alpha1b adrenergic receptor antagonist” (J Med Chem, 1998).

How the values were obtained:
[1] = target: T1, Alpha-1A adrenergic receptor (Homo sapiens, UniProt P35348); test: Compound was tested for its binding affinity utilizing cloned receptor binding assays by using [125 I]HEAT as radioligand to the human Alpha-1A adrenergic receptor (n >= 2)
T1 sequence (P35348 whole entry): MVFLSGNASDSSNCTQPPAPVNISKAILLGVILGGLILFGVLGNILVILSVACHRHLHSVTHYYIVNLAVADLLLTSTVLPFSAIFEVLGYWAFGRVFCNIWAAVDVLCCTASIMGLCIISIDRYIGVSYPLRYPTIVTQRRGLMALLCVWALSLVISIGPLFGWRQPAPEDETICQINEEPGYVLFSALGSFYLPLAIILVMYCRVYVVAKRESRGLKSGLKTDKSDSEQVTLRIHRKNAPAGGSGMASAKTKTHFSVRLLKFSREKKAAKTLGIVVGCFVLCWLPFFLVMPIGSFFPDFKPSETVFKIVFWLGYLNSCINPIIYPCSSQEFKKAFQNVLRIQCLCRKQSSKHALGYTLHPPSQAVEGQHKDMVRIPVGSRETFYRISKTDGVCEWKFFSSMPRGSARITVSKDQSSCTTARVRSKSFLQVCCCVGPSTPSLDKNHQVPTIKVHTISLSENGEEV

[2] = target: T2, Alpha-1A adrenergic receptor (Rattus norvegicus, UniProt P43140); test: Compound was evaluated for its ability to displace [125I]HEAT binding from rat Alpha-1A adrenergic receptor
T2 sequence (P43140 whole entry): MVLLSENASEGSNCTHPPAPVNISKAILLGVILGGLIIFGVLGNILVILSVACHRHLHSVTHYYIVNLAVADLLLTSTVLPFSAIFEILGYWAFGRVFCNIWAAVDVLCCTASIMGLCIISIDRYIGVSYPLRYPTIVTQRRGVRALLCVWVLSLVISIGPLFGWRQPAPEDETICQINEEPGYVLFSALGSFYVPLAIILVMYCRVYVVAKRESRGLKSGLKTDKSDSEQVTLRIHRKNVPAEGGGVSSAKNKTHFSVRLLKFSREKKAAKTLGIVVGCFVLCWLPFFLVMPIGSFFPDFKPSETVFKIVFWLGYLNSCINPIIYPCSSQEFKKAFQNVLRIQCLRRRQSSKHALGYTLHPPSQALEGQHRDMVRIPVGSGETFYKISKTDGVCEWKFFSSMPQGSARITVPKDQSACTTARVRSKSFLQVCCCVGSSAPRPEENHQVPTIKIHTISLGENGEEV

Row | SMILES | pKi [1] | pKi [2]
1 | COc1ccccc1N1CCN(CCN2C(=O)CC3(CCCC3)CC2=O)CC1 [BMY-7378] | 6.53 | 6.21
2 | COc1cc2nc(N3CCN(C(=O)C4CCCO4)CC3)nc(N)c2cc1OC (stereo not drawn) [TERAZOSIN] |  | 8.41

pKi: −log10 of the molar value.
